Reference: patent publication US9492413B2 (priority 2008, dated 2016)

Columns and labels:
[1] = mouse, in vivo
[2] = human, in vivo

## lysine-glycine-acetylsalicylate [LG-acetylsalicylate]
[1]
  body temperature: No difference
  changes of the body weight: no significant difference
  compatibility of inhalative application: well compatible
  organ weight of liver: no significant difference
  organ weight of spleen: no significant difference
  signs for liver toxicity: no signs for a liver toxicity
  systemic inflammation reactions: no systemic inflammation reactions
[2]
  subjectively perceived compatibility: excellent
  taste irritations: No patient reported taste irritations
  urge to cough: no extra urge to cough
